Earlier results, collected in US5811456A, “Monoamine oxidase B inhibitors, processes for their preparation and use thereof” (priority 1994, dated 1998).

Test system: MAO B
Conditions: background, cited from earlier work

C#CCN(C)C(C)Cc1ccccc1 (centres unmarked) [Deprenyl]
inhibition of MAO B (in words): irreversible inhibitor of MAO B
inhibition of MAO B (in words) (listed as deprenyl): acts on MAO B

Where two headings read alike, the source gives them in different places.
